pIC50: −log10 of the molar value.

Protein sequences, listed by entry. Tags and fused reporters are not part of them.
UniProt P24666, whole entry: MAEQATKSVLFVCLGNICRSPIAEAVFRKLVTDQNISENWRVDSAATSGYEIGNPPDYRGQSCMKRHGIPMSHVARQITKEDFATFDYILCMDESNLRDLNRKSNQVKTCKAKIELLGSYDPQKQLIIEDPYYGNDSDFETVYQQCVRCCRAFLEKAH

This assay deals with human LMPTP-A (Homo sapiens, UniProt P24666). As to the kind of experiment: Enzyme Assay of Inhibition of LMPTP-A. The note with it: phosphatase assay, OMFP or pNPP substrate, 50 mM Bis-Tris pH 6.0, 37° C.

On to `Clc1cccc(Cl)c1Cn1cnc(NCCCCC2CCNCC2)c2ncnc1-2`, for which the pIC50 was 4.70 to 6.00.

Usually pIC50 stands for −log10 of the IC50, conventionally taken in molar units.
